Values quoted from earlier work as cited in patent US9072741B2, “Methods of treating liver fibrosis and pre-cirrhosis with epidermal growth factor receptor inhibitors” (The General Hospital Corporation, priority 2009, dated 2015).

Test system: advanced HCC
Conditions: clinical trial (Zhu et al.); cited from earlier work

Substance: cetuximab: monoclonal antibody that selectively binds to the EGFR (Erbitux)
- responses in advanced HCC patients: no responses were seen
